Assay results: ChEMBL document CHEMBL1152792, “Synthesis and anticonvulsant activity of amino acid-derived sulfamides” (J Med Chem, 2009)

Organism: Mus musculus
Assay: Ratio of valproic acid ED50 to compound ED50 in albino mouse after 0.25 hrs by MES test
Format: functional

## CCCC(CCC)C(=O)O [VALPROIC ACID]
  Ratio ED50: 1
